# Results from PubChem BioAssay AID2550 (Johns Hopkins Ion Channel Center, 2010).
# Sequences of proteins named here, by UniProt entry; tags and fusion partners are left off.
# UniProt Q61143, whole entry: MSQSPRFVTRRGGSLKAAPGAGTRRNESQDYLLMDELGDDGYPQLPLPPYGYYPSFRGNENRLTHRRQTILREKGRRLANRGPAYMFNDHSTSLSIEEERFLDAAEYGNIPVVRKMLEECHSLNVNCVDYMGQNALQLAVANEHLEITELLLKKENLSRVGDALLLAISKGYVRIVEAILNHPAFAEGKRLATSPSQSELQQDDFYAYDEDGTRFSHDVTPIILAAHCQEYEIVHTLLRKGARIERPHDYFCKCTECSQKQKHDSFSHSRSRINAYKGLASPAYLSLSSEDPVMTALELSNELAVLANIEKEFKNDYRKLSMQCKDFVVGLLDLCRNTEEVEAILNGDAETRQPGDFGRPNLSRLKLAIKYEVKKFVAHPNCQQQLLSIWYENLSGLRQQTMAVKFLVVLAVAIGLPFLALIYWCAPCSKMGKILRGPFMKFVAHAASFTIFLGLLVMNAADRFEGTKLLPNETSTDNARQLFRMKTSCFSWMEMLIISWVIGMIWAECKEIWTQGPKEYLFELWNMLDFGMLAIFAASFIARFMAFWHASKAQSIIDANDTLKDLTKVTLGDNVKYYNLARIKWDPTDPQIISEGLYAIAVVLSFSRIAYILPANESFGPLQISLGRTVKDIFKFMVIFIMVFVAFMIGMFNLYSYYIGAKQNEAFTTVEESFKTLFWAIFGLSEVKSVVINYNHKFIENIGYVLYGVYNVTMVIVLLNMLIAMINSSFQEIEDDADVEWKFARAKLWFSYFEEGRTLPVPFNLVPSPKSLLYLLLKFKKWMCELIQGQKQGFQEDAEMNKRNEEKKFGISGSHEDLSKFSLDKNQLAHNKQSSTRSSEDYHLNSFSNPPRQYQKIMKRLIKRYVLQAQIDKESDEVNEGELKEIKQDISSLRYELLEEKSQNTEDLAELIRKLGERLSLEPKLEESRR
# This is a selection; strong and weak results do not stand in their true shares. Some tests of the compounds listed are not included; inactive here does not mean inactive elsewhere. Active and inactive are the calls of the source.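 Rule for the calls: active = B-score of the integrated fluorescence ratio above library mean plus 3 SD, and starting fluorescence ratio within library mean plus 5 SD; inactive = the rest.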
# Biological target: Short transient receptor potential channel 6 (Mus musculus) (UniProt Q61143)
# Assay: small molecules opening TRPC6 cation channel – cell-based, HEK293, membrane potential dye, primary screen (AID 2550);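 note: higher score means more depolarization so channel activation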
# Conditions: HEK293-TRPC6 membrane potential dye fluorescence; at 10 µM
row,Compound,outcome
1,O=C(NCC1(N2CCCCC2)CCCCC1)c1cc([N+](=O)[O-])ccc1Cl,inactive
2,CN1[C@@H]2CC[C@H]1CC(OC(=O)C(O)(c1ccccc1)c1ccccc1)C2 (some centres undefined),inactive
3,CCN(CC)CC(C)C(C)OC(=O)C(O)(c1ccccc1)c1ccccc1 (centres undefined),inactive
4,COc1cc(SC)ccc1C(=O)NCC1(N(C)C)CCCCC1,inactive
5,CC(C)N1C(=O)CC2(CCN(CCOC(=O)C(O)(c3ccccc3)c3ccccc3)CC2)C1=O,inactive
6,Cc1ccc(C(=O)NCC2(N3CCCCC3)CCCCC2)cc1,inactive
7,Cc1ccccc1C(=O)NCC1(N2CCCCC2)CCCCC1,inactive
8,CN(C)c1ccc(C(=O)NCC2(N(C)C)CCCCC2)cc1,inactive
9,CN(C)C1CCCC1OC(=O)C(O)(c1ccccc1)c1ccccc1 (centres undefined),inactive
10,C=CCN1CCN(CCOC(=O)C(O)(c2ccccc2)c2ccccc2)CC1,inactive
11,O=C(NCC1(N2CCCCC2)CCCCC1)c1cc(F)c(F)cc1Cl,inactive
12,COc1ccc(C(=O)NCC2(N(C)C)CCCCC2)cc1,inactive
13,CCN1CCCC(OC(=O)C2(O)c3ccccc3C=Cc3ccccc32)C1 (centres undefined),inactive
14,Cc1cc(C(=O)NCC2(N3CCCCC3)CCCCC2)ccc1[N+](=O)[O-],inactive
15,O=C(NCC1(N2CCCCC2)CCCCC1)c1cccc(Br)c1,inactive
16,CN(C)C1(CNC(=O)c2ccc(Br)cc2)CCCCC1,inactive
17,COc1cc(C(=O)NCC2(N(C)C)CCCCC2)c([N+](=O)[O-])cc1OC,inactive
18,COc1cccc(C(=O)NCC2(N3CCCCC3)CCCCC2)c1,inactive
19,COc1ccc(Cl)cc1C(=O)NCC1(N(C)C)CCCCC1,inactive
20,O=C(NCC1(N2CCCCC2)CCCCC1)c1cccc(Cl)c1,inactive
21,O=C(OC1CN2CCC1CC2)C(CO)(c1ccccc1)c1ccccc1 (centres undefined),inactive
22,COc1ccc(Br)c(C(=O)NCC2(N3CCCCC3)CCCCC2)c1,inactive
23,CC(C)Oc1ccc(C(=O)NCC2(N(C)C)CCCCC2)cc1,inactive
24,CN(C)c1cccc(C(=O)NCC2(N(C)C)CCCCC2)c1,inactive
